Assays:
[1] = target: HLA DQ molecule DQB1*0502 (human); experiment: inhibition of radiolabeled peptide binding to purified HLA class II
[2] = target: HLA-DQ molecule DQB1*0201 (human); experiment: inhibition of radiolabeled peptide binding to purified HLA-DQ
[3] = target: HLA DQ molecule DQB1*0202 (human); experiment: inhibition of radiolabeled peptide binding to purified HLA class II
[4] = target: HLA DQ molecule DQB1*0602 (human); experiment: as above

Row | IC50 [2] | Substance | IC50 [1] | IC50 [3] | IC50 [4]
1 |  | Asp f 17 (91-105) peptide …, Peptide ID 3324.0212 | 1380 nM |  | 
2 | 1400 nM | Lol p 1 (176-190) peptide … |  |  | 
3 |  | Pen ch 18 (226-240) peptide …, Peptide ID 3324.1330 | 10100 nM | 9490 nM | 1580 nM

Source: patent US20150004189A1
